Legend:
IOP in rabbits [1] = assay: Lowering of 4AP-raised IOP in rabbits, topical; type: in vivo, New Zealand white rabbits; conditions: 10 μM
IOP in rabbits [2] = assay: Lowering of basal IOP in rabbits, topical; type: in vivo, New Zealand white rabbits; conditions: one drop of 1 mM solution, other eye PBS

In the case of `CC(C)CN1CCC(OC2C(O)CC(OC3C(O)CC(OC4CCC5(C)C(CCC6C5CC(O)C5(C)C(C7=CC(=O)OC7)CCC65O)C4)OC3C)OC2C)OC(C)C1` (centres unmarked), the “effect on 4AP-induced IOP” value (IOP in rabbits [1]) was “still effective” and the “effect on lowering the basal IOP” value (IOP in rabbits [2]) was “neither digoxin nor DiB had a significant effect”.
